Assay results reported in patent US5117830A, “Method of determining viability of tissue” (priority 1990, dated 1992).

Key:
adenosine receptors = settings: cited from earlier work
[1] = tested on: rat heart rate and blood pressure; test: In vivo rat heart rate and blood pressure; settings: anesthetized rats, intravenous
Description: Rats were anesthetized with urethan and blood pressure was monitored via a carotid cannula. Drug injections were made intravenously through a jugular cannula. Blood pressure, EGC, and heart rate were recorded on a Grass polygraph.

Compound: CCNC(=O)[C@H]1O[C@@H](n2cnc3c(N)ncnc32)[C@H](O)[C@@H]1O [NECA, 5'-N-ethylcarboxamido-adenosine]
- receptor selectivity (adenosine receptors): selective for A2 adenosine receptors
- blood pressure [1]: decrease in blood pressure

Compound: Cn1c(=O)c2[nH]cnc2n(C)c1=O [theophylline]
- antagonism at adenosine receptors (adenosine receptors): best known antagonists at adenosine receptors
